Assay results: paper PMC6156765

Chains of the proteins cited; added tags and fusions are not shown. Lines headed by an entry give the natural chain unless they say otherwise; changes in a name come on top. Residues count along the entry.
UniProt Q86TI0, 1-381 S237A: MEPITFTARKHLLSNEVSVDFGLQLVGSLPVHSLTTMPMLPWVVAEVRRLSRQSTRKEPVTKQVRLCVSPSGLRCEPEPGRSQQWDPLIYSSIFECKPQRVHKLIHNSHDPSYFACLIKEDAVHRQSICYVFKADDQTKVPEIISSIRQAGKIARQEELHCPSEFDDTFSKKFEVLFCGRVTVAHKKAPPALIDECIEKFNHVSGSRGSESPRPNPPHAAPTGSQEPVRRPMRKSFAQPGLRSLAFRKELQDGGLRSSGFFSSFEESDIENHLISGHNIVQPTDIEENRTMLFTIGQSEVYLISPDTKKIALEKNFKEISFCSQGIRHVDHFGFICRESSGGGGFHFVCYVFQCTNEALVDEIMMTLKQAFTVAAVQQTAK
UniProt Q5EG47: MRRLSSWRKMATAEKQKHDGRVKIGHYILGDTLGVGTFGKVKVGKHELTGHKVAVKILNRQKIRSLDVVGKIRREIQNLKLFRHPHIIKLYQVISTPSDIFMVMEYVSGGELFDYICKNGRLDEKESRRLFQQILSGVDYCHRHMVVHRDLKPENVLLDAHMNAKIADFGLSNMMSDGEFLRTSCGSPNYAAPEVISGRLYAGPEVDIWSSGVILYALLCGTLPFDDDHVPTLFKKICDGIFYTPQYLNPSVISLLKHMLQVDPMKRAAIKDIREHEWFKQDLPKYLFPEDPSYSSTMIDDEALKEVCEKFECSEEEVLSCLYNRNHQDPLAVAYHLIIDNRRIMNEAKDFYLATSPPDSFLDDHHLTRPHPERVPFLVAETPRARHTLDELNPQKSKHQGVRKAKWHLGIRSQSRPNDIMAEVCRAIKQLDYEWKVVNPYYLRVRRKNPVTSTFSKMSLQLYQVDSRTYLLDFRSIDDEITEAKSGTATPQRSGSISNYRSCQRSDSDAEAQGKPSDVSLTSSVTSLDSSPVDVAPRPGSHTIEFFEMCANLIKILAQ

Assays:
[1] = biological target: GFP-PTB1 + 2 S237A (human) (UniProt Q86TI0); assay: co-IP; GFP-trap from lysates of lentivirally transduced C2C12 myotubes in precipitation buffer, western blot; some cells serum starved and treated with vehicle or AICAR (2 mM)
[2] = biological target: full-length GFP-tagged TBC1D1 (human) (UniProt Q86TI0); assay: as above

percent inhibition of AMPK binding against GFP-PTB1 + 2 [1]: 42%
fold increase in binding with AICAR over basal [2]: 4 fold
Substance: AMPK heterotrimers containing the α1 subunit (endogenous, C2C12 myotubes) (from UniProt Q5EG47 1-559; Q9R078 1-270; O54950 1-330) (complex)
